Publication PMC5891061, “Electrophysiological mechanisms of vandetanib-induced cardiotoxicity: Comparison of action potentials in rabbit Purkinje fibers and pluripotent stem cell-derived cardiomyocytes” (PLoS ONE, 2018)

Chains of the proteins cited; added tags and fusions are not shown. Lines headed by an entry give the natural chain unless they say otherwise; changes in a name come on top.
UniProt Q12809: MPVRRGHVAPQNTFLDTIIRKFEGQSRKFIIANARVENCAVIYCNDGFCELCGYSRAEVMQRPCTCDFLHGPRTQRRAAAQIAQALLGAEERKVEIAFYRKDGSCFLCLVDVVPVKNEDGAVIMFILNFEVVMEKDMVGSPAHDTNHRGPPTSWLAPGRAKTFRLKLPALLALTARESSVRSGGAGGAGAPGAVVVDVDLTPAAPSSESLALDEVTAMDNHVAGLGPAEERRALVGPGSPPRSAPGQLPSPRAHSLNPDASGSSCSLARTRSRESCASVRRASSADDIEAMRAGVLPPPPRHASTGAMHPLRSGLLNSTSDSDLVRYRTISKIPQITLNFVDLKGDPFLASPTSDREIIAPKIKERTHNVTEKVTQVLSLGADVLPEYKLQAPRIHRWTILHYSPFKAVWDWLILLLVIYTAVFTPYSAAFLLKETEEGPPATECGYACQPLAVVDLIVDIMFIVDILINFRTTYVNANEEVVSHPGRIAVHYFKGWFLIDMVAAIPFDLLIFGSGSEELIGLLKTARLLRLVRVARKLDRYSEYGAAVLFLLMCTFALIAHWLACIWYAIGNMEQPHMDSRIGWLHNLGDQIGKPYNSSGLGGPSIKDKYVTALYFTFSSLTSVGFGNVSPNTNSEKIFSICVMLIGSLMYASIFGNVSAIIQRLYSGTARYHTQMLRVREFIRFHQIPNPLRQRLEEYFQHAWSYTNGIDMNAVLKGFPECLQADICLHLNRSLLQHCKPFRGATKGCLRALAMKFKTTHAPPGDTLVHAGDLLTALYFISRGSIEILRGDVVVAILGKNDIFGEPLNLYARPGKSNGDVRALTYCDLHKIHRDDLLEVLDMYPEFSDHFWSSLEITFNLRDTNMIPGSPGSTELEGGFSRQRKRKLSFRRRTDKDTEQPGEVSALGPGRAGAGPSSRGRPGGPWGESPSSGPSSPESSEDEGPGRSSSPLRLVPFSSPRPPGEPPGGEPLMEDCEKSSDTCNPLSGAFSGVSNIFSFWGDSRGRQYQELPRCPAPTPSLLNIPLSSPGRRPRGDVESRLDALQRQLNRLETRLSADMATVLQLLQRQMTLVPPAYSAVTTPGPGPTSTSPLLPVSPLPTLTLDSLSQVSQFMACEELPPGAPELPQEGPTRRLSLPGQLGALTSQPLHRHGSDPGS

Target: hERG (IKr) (Homo sapiens, UniProt Q12809)
Assay: Whole-cell patch clamp, IhERG tail current in transfected HEK293 cells
Settings: 1 μM

## COc1cc2c(Nc3ccc(Br)cc3F)ncnc2cc1OCC1CCN(C)CC1 [Vandetanib]
  IhERG current: 744.0 ± 125.9
